The assay deals with Protein polybromo-1 (Homo sapiens, UniProt Q86U86). To be noted: dose 100.0 µM.

By UniProt entry, the sequences of proteins in these tests, tags left out.
UniProt Q86U86, whole entry: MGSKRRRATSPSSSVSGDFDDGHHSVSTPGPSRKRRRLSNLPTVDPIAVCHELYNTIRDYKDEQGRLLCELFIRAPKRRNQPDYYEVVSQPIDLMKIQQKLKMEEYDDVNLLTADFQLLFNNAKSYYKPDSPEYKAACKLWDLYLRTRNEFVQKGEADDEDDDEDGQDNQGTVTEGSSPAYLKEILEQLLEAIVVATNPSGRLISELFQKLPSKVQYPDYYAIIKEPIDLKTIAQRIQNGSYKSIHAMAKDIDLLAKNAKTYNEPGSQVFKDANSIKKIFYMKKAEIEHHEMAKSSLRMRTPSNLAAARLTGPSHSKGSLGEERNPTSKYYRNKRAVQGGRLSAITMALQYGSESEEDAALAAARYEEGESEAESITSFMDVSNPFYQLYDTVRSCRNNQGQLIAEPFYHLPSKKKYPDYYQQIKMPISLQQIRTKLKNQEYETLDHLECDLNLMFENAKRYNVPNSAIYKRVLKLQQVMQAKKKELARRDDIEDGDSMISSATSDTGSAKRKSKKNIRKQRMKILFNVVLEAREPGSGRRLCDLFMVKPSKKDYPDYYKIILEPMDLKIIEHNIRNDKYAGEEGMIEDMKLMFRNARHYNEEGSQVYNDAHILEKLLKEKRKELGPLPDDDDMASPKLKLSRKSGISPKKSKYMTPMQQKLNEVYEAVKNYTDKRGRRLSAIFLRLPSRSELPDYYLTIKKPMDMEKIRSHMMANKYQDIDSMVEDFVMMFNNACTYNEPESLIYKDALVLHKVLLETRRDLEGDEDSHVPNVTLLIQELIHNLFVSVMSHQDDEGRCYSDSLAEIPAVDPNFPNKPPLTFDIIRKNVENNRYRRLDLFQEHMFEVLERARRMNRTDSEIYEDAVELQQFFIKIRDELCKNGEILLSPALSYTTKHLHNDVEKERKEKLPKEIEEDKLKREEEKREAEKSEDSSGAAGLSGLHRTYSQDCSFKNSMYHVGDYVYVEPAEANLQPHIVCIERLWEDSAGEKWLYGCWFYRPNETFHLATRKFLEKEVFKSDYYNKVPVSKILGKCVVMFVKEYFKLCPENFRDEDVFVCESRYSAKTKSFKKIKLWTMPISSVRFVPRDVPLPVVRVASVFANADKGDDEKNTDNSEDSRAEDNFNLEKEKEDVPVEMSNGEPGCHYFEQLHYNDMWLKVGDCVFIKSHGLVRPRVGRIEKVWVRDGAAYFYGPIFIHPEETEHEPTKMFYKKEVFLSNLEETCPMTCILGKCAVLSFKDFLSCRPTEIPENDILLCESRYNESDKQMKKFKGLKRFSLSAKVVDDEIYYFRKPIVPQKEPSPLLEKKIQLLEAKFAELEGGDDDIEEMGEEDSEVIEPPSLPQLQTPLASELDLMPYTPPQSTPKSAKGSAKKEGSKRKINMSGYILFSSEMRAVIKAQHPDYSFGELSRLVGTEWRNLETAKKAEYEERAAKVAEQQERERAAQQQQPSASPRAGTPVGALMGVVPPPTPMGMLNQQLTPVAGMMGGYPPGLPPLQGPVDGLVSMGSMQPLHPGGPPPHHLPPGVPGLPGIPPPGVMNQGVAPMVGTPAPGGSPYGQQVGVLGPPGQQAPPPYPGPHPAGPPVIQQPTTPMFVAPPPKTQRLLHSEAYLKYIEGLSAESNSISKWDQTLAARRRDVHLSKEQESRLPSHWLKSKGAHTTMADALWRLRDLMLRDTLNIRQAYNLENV

The text below walks through data of ChEMBL document CHEMBL5108070, “Selective and Cell-Active PBRM1 Bromodomain Inhibitors Discovered through NMR Fragment Screening” (J Med Chem, 2022).

For orientation: ΔTm means the change in melting temperature against a reference sample.

Regarding `CN(C)/C=C1\CCn2c1nc(=O)c1c(Cl)cccc12`, the ΔTm was found to be 11 °C.
